# Measured values from PubChem BioAssay AID624417 (National Center for Advancing Translational Sciences (NCATS), 2012).
# The chains behind the UniProt entries cited, without tags or fusion partners.
# UniProt P43220, whole entry: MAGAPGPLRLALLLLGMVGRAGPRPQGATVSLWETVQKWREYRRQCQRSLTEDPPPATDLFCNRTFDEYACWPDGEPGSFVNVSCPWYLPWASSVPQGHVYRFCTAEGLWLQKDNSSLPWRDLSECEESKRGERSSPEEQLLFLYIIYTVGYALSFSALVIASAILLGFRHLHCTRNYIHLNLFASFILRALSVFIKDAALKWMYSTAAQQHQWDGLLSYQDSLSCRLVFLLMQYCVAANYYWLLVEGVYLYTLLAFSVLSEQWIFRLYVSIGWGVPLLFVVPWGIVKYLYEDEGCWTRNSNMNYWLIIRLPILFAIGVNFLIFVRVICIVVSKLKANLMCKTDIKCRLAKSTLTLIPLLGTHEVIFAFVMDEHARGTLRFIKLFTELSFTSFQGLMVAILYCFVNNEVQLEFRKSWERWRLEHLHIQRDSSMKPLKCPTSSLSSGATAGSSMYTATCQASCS
# Only a part is listed here, and it is no random draw. Records with an inconclusive call do not appear. Calls of active or inactive are those of the source. Calls come from the whole dose curve; as a rule, active = well fitted inhibition curve with a large enough effect; inconclusive = small, poorly fitted or top-dose-only effect; inactive = no such curve, though single readings can be large or run the other way.
# Target: Glucagon-like peptide 1 receptor (Homo sapiens) (UniProt P43220)
# Test: qHTS of GLP-1 Receptor Inverse Agonists (Inhibition Mode); note: nearly all actives have a fitted effect of over 55% in size
# Conditions: HEK293 GLP-1R CRE-luciferase, luminescence, 24 h, GLP-1R form is constitutively active; at 38.3 µM (top of the series)
# % is set by controls: 0 for no effect and ±100 for the full control effect.
row,SMILES,"activity change, negative = inhibition"
1,CCC(=O)N(c1ccccc1)C1(COC)CCN(CCn2nnn(CC)c2=O)CC1,inactive: -3.68%
2,CCC(=O)N(c1ccccc1)C1(COC)CCN(CCc2cccs2)CC1,inactive: -28.5%
